For the test, the target named is T1, rat TRPA1 (Rattus norvegicus, UniProt Q6RI86).
T1 construct: expressed in transfected cells; host or cells: HEK-293
Nature of the test: Elevation of intracellular Ca2+ (Fluo-4) in HEK-293 cells stably transfected with rat TRPA1; agonist and antagonist/desensitizing behaviour. The test is classed as cell-based. The procedure: Assay of rat TRPA1, TRPV2, TRPV3, TRPV4, TRPM8 or human TRPV1 mediated elevation of intracellular Ca^2+ in transfected HEK-293 cells are been performed as described. Briefly, human embryonic kidney (HEK-293) cells, stably transfected with rat TRPA1, TRPV2, TRPV3, TRPV4, TRPM8 or human TRPV1 (selected by Geneticin 600 μg mL^−1) or not transfected, were cultured in EMEM + 2 mM Glutamine + 1% Non-Essential Amino Acids (NEAA) + 10% FBS and maintained at 37 °C with 5% CO2. Stable transfections were checked by quantitative real-time polymerase chain reaction (PCR), quantitative real-time PCR was performed by an iCycler-iQ (Bio-Rad, Hercules, CA, USA) in a 20 μL reaction mixture containing the following: 10 μL iQ SYBR Green Supermix 2X (Bio-Rad), 20 ng of cDNA (calculated on the basis of the retro-transcribed RNA), and 330 nM for each primer. […] The day of the experiment the cells were loaded with Fluo-4 AM (4 μM in DMSO containing 0.02% Pluronic F-127) for 1 h in the dark at room temperature, rinsed and resuspended in Tyrode’s solution (145 mM NaCl, 2.5 mM KCl, 1.5 mM CaCl2, 1.2 mM MgCl2, 10 mM D-glucose, and 10 mM HEPES, pH 7.4), finally transferred to a quartz cuvette of a spectrofluorimeter (Perkin-Elmer LS50B; λEX = 488 nm, λEM = 516 nm) equipped with PTP-1 Fluorescence Peltier System (PerkinElmer Life and Analytical Sciences, Waltham, MA, USA) under continuous stirring. […]

Amino acid sequences for entries named in this document (tags omitted).
UniProt Q6RI86, whole entry: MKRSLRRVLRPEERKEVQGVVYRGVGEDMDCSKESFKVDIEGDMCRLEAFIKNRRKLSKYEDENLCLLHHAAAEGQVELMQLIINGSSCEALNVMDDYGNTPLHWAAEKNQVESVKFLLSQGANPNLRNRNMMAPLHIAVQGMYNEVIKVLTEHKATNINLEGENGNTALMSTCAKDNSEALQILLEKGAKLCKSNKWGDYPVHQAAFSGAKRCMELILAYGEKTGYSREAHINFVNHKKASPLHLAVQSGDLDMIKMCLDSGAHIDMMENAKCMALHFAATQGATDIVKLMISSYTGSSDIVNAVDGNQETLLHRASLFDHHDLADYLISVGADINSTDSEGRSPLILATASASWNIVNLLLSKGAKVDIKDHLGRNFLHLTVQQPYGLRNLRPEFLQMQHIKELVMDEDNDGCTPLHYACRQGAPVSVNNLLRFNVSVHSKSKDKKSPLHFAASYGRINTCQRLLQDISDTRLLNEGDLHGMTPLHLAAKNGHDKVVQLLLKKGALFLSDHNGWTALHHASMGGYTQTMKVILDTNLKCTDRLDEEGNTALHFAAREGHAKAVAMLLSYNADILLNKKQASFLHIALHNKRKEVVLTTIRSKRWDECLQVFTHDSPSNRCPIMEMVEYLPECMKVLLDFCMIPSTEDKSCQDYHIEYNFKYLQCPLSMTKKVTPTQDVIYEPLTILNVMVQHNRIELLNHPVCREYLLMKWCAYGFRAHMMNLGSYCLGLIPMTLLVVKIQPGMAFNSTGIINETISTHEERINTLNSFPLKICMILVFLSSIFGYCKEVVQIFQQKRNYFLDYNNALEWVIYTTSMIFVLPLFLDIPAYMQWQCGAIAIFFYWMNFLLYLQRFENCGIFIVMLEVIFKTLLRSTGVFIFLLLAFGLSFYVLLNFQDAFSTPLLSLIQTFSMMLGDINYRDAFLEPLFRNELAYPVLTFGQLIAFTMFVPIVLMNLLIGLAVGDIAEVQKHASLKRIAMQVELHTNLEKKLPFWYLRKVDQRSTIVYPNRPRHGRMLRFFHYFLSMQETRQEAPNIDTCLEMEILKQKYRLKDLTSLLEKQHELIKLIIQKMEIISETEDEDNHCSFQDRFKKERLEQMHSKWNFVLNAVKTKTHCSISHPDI

The structures appear in SMILES notation.

What is called EC50 is the concentration at which the effect is half-maximal. Usually IC50 stands for the point on the concentration scale where inhibition reaches its midpoint. Take `C=CCN=C=S` [AITC, Allylisothiocyanate, reference compound]: the EC50 was 1430 ± 40 nM and the IC50 was found to be 1710 ± 50 nM.

For the origin of these results see publication PMC7070407, “Moringin, A Stable Isothiocyanate from Moringa oleifera, Activates the Somatosensory and Pain Receptor TRPA1 Channel In Vitro” (Molecules, 2020).
